The values below come from PubChem BioAssay AID2023 (NMMLSC, 2009).

SMILES strings stand for the structures. Only a part is listed here, and it is no random draw. Activity calls are given as the source filed them.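 The calls were made as follows: active = GFP response vs DMSO above a set limit, about the screen mean plus 3 SD (cut at about 150% in these data); inconclusive = under 70 cell events counted for the yeast strain; inactive = the rest.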

A short description of this test: modulators of LAP4-GFP expression in yeast, primary screen, S. cerevisiae, multiplex flow cytometry, MLPCN library (AID 2023). The following applies: 3 h, at 10 µM, stronger effect = higher value, median GFP as percent of DMSO wells. On the technique in general: Flow cytometry measures light scatter and fluorescence of single cells or particles in a stream.
Consider `CCCN1CCC(Nc2cc(OC)cc(OC)c2)CC1`, for which the GFP response vs DMSO was inactive: 97.5%.

On to `c1ccc(CN2CCC(Nc3ccccc3)CC2)cc1`, for which the GFP response vs DMSO was inactive: 98.7%. For `CN(C)C1(CNC(=O)c2cccc(C#N)c2)CCCCC1`, the GFP response vs DMSO is inactive: 103%. Then `CC(C)(C)OC(=O)N1CCC(N(C(=O)c2ccccc2)c2ccc(Cl)cc2)CC1`, with inactive: 92.6%. Next, `N#Cc1ccc(C(=O)NCC2(N3CCCCC3)CCCCC2)cc1`: inactive: 97.6%; `CCc1cc(C(=O)NCC2(N3CCCCC3)CCCCC2)sc1C`: inactive: 96.2%. Next, `O=C(OC1CN2CCC1CC2)C1c2ccccc2C=Cc2ccccc21` (stereo unspecified): inactive: 97.2%; `N/C(=N\O)c1c(N)no[n+]1[O-]`: inactive: 101%. For `CCOC(=O)N1CCC(Nc2ccc(C)cc2)CC1`, the GFP response vs DMSO is inactive: 90.2%. For `COc1ccc(C(=O)NCC2(N3CCOCC3)CCCCC2)cc1OC`, the GFP response vs DMSO was inactive: 93.8%.

For `O=C(NCC1(N2CCOCC2)CCCCC1)c1cc(Br)ccc1Cl`, the GFP response vs DMSO is inactive: 94%. Next, `COc1cc(C(=O)NCC2(N3CCOCC3)CCCCC2)cc(OC)c1C`: inactive: 97.1%; `CCCOc1ccc(C)cc1CN(CCCl)CCCl`: inactive: 104%. As to `CN1CCC(Nc2ccc(Cl)cc2)CC1`, the GFP response vs DMSO is inactive: 94.4%. Turning to `CCC(CO)(C(=O)OC1CN2CCC1CC2)c1ccccc1` (stereo unspecified), the GFP response vs DMSO was inactive: 95.1%. Turning to `COc1cccc(C(=O)N(c2cc(C)cc(C)c2)C2CCN(C(=O)OC(C)(C)C)CC2)c1`, the GFP response vs DMSO was inactive: 103%. For `COc1cc(OC)cc(C(=O)NCC2(N3CCOCC3)CCCCC2)c1`, the GFP response vs DMSO is inactive: 101%. Take `CCCOc1ccc(C(=O)NCC2(N(C)C)CCCCC2)cc1`: the GFP response vs DMSO is inactive: 94.2%. Next, `O=C(O)C1(Nc2ccccc2)CCN(Cc2ccccc2)CC1`: inactive: 94.5%; `CC(C)(C)OC(=O)N1CCC(Nc2ccccc2)CC1`: inactive: 105%. Then `CN1CCC(Nc2ccc(F)c(Cl)c2)CC1`, with inactive: 102%; and `CCOc1ncccc1C(=O)NCC1(N2CCOCC2)CCCCC1`, with inactive: 103%. Next, `CN(C)c1ccc(C(=O)NCC2(N3CCCCC3)CCCCC2)cc1`: inactive: 97.8%. On to `O=C(NCC1(N2CCCCC2)CCCCC1)c1ccco1`, for which the GFP response vs DMSO was inactive: 103%.

Take `CCN1CCC(Nc2cccc(F)c2)CC1`: the GFP response vs DMSO is inactive: 94.7%.

For the compound `Fc1ccccc1NC1CCN(Cc2ccccc2)CC1`, the GFP response vs DMSO was inactive: 103%. Consider `Cc1ccc(C(=O)NCC2(N3CCCCC3)CCCCC2)o1`, for which the GFP response vs DMSO is inactive: 98.7%. Next, `COc1cc(OC)cc(C(=O)NCC2(N3CCCCC3)CCCCC2)c1`: inactive: 88.8%. As for `Cc1ccc(OCC(C)C)c(CN(CCCl)CCCl)c1`, the GFP response vs DMSO was inactive: 123%. Then `CCOC(=O)N1CCC(Nc2cccc(C)c2)CC1`, with inactive: 99.7%; and `COc1cc(C(=O)NCC2(N(C)C)CCCCC2)ccc1OC(F)F`, with inactive: 90.9%; and `CCOC(=O)N1CCC(Nc2ccc(F)cc2)CC1`, with inactive: 99.6%. In the case of `COc1ccc(NC2CCN(CCc3ccccc3)CC2)c(OC)c1`, the GFP response vs DMSO was inactive: 106%. In the case of `O=C(NCC1(N2CCCCC2)CCCCC1)c1ccc(F)cc1`, the GFP response vs DMSO is inactive: 92.7%. Next, `CCOc1ccc(C)cc1CN(CCCl)CCCl`: inactive: 94.5%.

With `CCOC(=O)N1CCC(Nc2ccc(OC)cc2)CC1`, the GFP response vs DMSO is inactive: 92.9%. `COc1ccc(Cl)cc1C(=O)NCC1(N2CCOCC2)CCCCC1`: the GFP response vs DMSO is inactive: 105%.

In the case of `N#CC1(Nc2ccccc2)CCN(Cc2ccccc2)CC1`, the GFP response vs DMSO was inactive: 113%. Then `O=C(NCC1(N2CCCCC2)CCCCC1)c1ccc(Cl)s1`, with inactive: 101%; and `O=C(OC1CN2CCC1CC2)C1c2ccccc2Oc2ccccc21` (stereo unspecified), with inactive: 104%.

Take `O=C(NCC1(N2CCOCC2)CCCCC1)c1cc2ccccc2o1`: the GFP response vs DMSO is inactive: 92%.

In the case of `Cc1cc(C)cc(N(C(=O)c2ccccc2)C2CCN(C(=O)OC(C)(C)C)CC2)c1`, the GFP response vs DMSO was inactive: 83.4%. Then `O=C(NCC1(N2CCCCC2)CCCCC1)c1ccc(Cl)nc1`, with inactive: 89.6%; and `CSc1ccccc1C(=O)NCC1(N2CCCCC2)CCCCC1`, with inactive: 91.7%; and `O=C(NCC1(N2CCCCC2)CCCCC1)c1cccs1`, with inactive: 99.6%.

With `O=C(NCC1(N2CCCCC2)CCCCC1)c1ccc(=O)[nH]c1`, the GFP response vs DMSO is inactive: 105%. On to `CC(C)(C)OC(=O)N1CCC(N(C(=O)c2ccccc2)c2ccc(F)cc2)CC1`, for which the GFP response vs DMSO is inactive: 95.8%. Next, `COc1ccc(C(=O)NCC2(N3CCCCC3)CCCCC2)c(OC)c1OC`: inactive: 90.7%; `COc1ccc(C(=O)NCC2(N3CCCCC3)CCCCC2)cc1`: inactive: 97.8%; `CCCOc1ccc(C(=O)NCC2(N(C)C)CCCCC2)cc1OC`: inactive: 75.5%. For `CN1CCC(Nc2cccc(F)c2)CC1`, the GFP response vs DMSO is inactive: 114%. In the case of `O=C(NCC1(N2CCCCC2)CCCCC1)c1cncc(Br)c1`, the GFP response vs DMSO was inactive: 102%. As for `O=C(NCC1(N2CCOCC2)CCCCC1)c1cc(F)c(F)cc1Cl`, the GFP response vs DMSO is inactive: 102%. Then `COc1cc(OC)c(C(=O)NCC2(N(C)C)CCCCC2)cc1OC`, with inactive: 91.9%; and `CN(C)c1cccc(C(=O)NCC2(N3CCCCC3)CCCCC2)c1`, with inactive: 98.3%; and `COc1ccc(CN(CCCl)CCCl)cc1Cl`, with inactive: 100%. Then `CC(C)c1ccc(NC2CCN(C(=O)OC(C)(C)C)CC2)cc1`, with inactive: 98.4%. With `COc1ccc(NC2CCN(C(=O)OC(C)(C)C)CC2)cc1`, the GFP response vs DMSO was inactive: 102%. `CN1CCN(CCOC(=O)C(O)(c2ccccc2)c2ccccc2)CC1`: the GFP response vs DMSO was inactive: 85.6%.

Regarding `O=C(NCC1(N2CCOCC2)CCCCC1)c1cc(=O)[nH]c2ccccc12`, the GFP response vs DMSO was inactive: 95.2%. Then `COc1cc(C(=O)NCC2(N3CCCCC3)CCCCC2)ccc1OC(F)F`, with inactive: 115%.

`O=C(NCC1(N2CCCCC2)CCCCC1)c1cccc(C(F)(F)F)c1`: the GFP response vs DMSO was inactive: 98.7%.

Take `O=C(NCC1(N2CCCCC2)CCCCC1)c1cccc([N+](=O)[O-])c1`: the GFP response vs DMSO is inactive: 102%. Next, `N#CC1(Nc2ccccc2)CCN(CCc2ccccc2)CC1`: inactive: 104%; `CCN1CCC(Nc2ccc(Cl)cc2)CC1`: inactive: 97.5%; `O=C(NCC1(N2CCCCC2)CCCCC1)c1ccc(OC(F)F)cc1`: inactive: 95.2%.
